Measured values as given in patent US7247440B2, “Method of screening preventives or remedies for obesity” (Takeda Pharmaceutical Company Limited, priority 2001, dated 2007).

By UniProt entry, the sequences of proteins in these tests, tags left out. Where a name states a change or a piece, a line headed by the entry shows the natural chain unless it says otherwise.
UniProt P48146: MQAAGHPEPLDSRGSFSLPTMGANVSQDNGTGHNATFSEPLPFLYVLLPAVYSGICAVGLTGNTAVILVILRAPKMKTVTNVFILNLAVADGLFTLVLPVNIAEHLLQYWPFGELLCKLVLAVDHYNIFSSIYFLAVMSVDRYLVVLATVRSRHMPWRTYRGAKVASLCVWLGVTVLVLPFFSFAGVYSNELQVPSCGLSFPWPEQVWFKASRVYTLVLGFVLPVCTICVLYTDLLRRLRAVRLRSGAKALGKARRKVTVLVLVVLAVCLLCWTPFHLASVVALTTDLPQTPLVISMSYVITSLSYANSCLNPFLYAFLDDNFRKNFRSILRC

Assays:
[1] = target: T1, GPR8 (Homo sapiens, UniProt P48146); experiment: GTPγ S binding promoting activity on GPR8-expressed CHO cell membrane fraction; format: biochemical; parameters: expressed in transfected cells; host or cells: CHO dhfr- cells, plasmid pAKKO-GPR8 (clones #17, #41, #46; mainly #17); conditions: various concentrations
Procedure: The [^35S]-guanosine 5′-(γ-thio)triphosphate binding promoting activity on a GPR8-expressed CHO cell membrane fraction was assayed by the following procedures. First, preparation of the membrane fraction is described. To 1×10^8 of CHO/GPR8 cells was added 10 ml of a homogenate buffer (10 mM NaHCO3, 5 mM EDTA, 0.5 mM PMSF, 1 μg/ml pepstatin, 4 μg/ml E64 and 20 μg/ml leupeptin). The mixture was homogenized by using Polytron (12,000 rpm, 1 min.). The cell homogenate was subjected to centrifugation (1,000 g, 15 mins.) to obtain the supernatant. Next, the supernatant was subjected to ultracentrifugation (Beckman type 30 rotor, 30,000 rpm, 1 hour). The resulting precipitate was used as GPR8-expressed CHO cell membrane fraction.
The GTPγ S binding activity was assayed as follows. The GPR8expressed CHO cell membrane fraction was diluted with a membrane dilution buffer (50 mM Tris-hydrochloride buffer (pH 7.4), 5 mM MgCl2, 150 mM NaCl, 1 μM GDP) to prepare a cell membrane fraction solution for assay having a protein level of 30 mg/ml. To 200 μl of the cell membrane fraction solution for assay were added 2 μl of 51.5 nM [^35S]-guanosine 5′-(γ-thio)triphosphate (NEN Co.) and a sample fluid. […] After washing twice with 1.5 ml of a wash buffer (50 mM Tris-hydrochloride buffer (pH 7.4), 5 mM MgCl2, 1 mM EDTA, 0.1% BSA), radioactivity of the filter was measured with a liquid scintillation counter. […]

[2] = target: T1, GPR8; experiment: Intracellular cAMP production suppressing activity in GPR8-expressed CHO cells; format: cell-based; parameters: expressed in transfected cells; host or cells: CHO dhfr- cells, plasmid pAKKO-GPR8 (clones #17, #41, #46; mainly #17); conditions: forskolin
Procedure: The CHL/GPR8 cells produced in REFERENCE EXAMPLE 4 and mock CHO cells were inoculated on a 24-well plate in 5×10^4 cells/well, followed by cultivation for 48 hours. The cells were washed with Hanks' buffer (pH 7.4) containing 0.2 mM 3-isobutyl-methylxanthine, 0.05% BSA and 20 mM HEPES (hereinafter Hanks' buffer (pH 7.4) containing 0.2 mM 3-isobutyl-methylxanthine, 0.05% BSA and 20 mM HEPES is referred to as a reaction buffer). Thereafter, 0.5 ml of the reaction buffer was added to the system, which was kept warm in an incubator for 30 minutes. After the reaction buffer was removed, 0.25 ml of a fresh reaction buffer was added to the cells. Then, 0.25 ml of the reaction buffer containing a sample fluid and 2 μM forskolin was added to the cells followed by reacting at 37° C. for 24 minutes. By adding 100 μl of 20% perchloric acid, the reaction was terminated. The reaction mixture was then allowed to stand on ice for an hour to extract intracellular cAMP. The amount of cAMP in the extract was measured using cAMP EIA kit (Amersham Pharmacia Biotech).
hGPR8L (1-23), which was synthesized in REFERENCE EXAMPLE 12, was brought in contact with the GPR8-expressed CHO cells in various concentrations according to the procedures described in REFERENCE EXAMPLE 5, to assay the intracellular cAMP production suppressing activity. […]

| Structure (SMILES) | GTPγ S binding promoting activity (in words) [1] | intracellular cAMP production suppressing activity (in words) [2] |
| --- | --- | --- |
| CSCC[C@H](NC(=O)[C@H](CC(C)C)NC(=O)[C@H](CC(C)C)NC(=O)CNC(=O)[C@H](C)NC(=O)[C@H](C)NC(=O)[C@H](CCCNC(=N)N)NC(=O)CNC(=O)[C@@H](NC(=O)[C@@H](NC(=O)[C@H](Cc1c[nH]cn1)NC(=O)[C@H](Cc1ccc(O)cc1)NC(=O)[C@H](CCCNC(=N)N)NC(=O)[C@@H]1CCCN1C(=O)[C@H](CO)NC(=O)[C@H](C)NC(=O)[C@@H](NC(=O)[C@H](Cc1c[nH]cn1)NC(=O)[C@H](CCCCN)NC(=O)[C@H](Cc1ccc(O)cc1)NC(=O)[C@@H](N)Cc1c[nH]c2ccccc12)C(C)C)[C@@H](C)O)C(C)C)C(=O)NCC(=O)N[C@@H](CC(C)C)C(=O)O [hGPR8L(1–23)] | dose-dependently | suppressed the intracellular cAMP production dose-dependently |
| CSCC[C@H](NC(=O)[C@H](CC(C)C)NC(=O)[C@H](CC(C)C)NC(=O)CNC(=O)[C@H](C)NC(=O)[C@H](C)NC(=O)[C@H](CCCNC(=N)N)NC(=O)CNC(=O)[C@@H](NC(=O)[C@@H](NC(=O)[C@H](Cc1c[nH]cn1)NC(=O)[C@H](Cc1ccc(O)cc1)NC(=O)[C@H](CCCNC(=N)N)NC(=O)[C@@H]1CCCN1C(=O)[C@H](CO)NC(=O)[C@H](C)NC(=O)[C@@H](NC(=O)[C@H](Cc1c[nH]cn1)NC(=O)[C@H](CCCCN)NC(=O)[C@H](Cc1ccc(O)cc1)NC(=O)[C@@H](N)Cc1c[nH]c2ccccc12)C(C)C)[C@@H](C)O)C(C)C)C(=O)NCC(=O)N[C@@H](CC(C)C)C(=O)N[C@@H](CCCNC(=N)N)C(=O)N[C@@H](CCCNC(=N)N)C(=O)N[C@@H](CO)C(=O)N1CCC[C@H]1C(=O)N[C@@H](Cc1ccc(O)cc1)C(=O)N[C@@H](CC(C)C)C(=O)N[C@@H](Cc1c[nH]c2ccccc12)C(=O)O [hGPR8L(1–30)] | dose-dependently promoted the GTPγ S binding | suppressed the intracellular cAMP production dose-dependently |
